# Ab-14 light chain CDR variants: yeast mating affinities

Antigen: PDVDLGDISGINAS, a 14-residue peptide of the SARS-CoV-2 spike HR2 region.

Ab-14 is the parent antibody, in scFv form: VH, then the linker GGGGSGGGGSGGGGS, then VL. The heavy chain is unchanged in all variants.
VH: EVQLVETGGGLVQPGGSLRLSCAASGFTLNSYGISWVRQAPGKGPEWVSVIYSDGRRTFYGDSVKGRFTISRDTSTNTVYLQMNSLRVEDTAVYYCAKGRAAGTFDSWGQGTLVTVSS
VL: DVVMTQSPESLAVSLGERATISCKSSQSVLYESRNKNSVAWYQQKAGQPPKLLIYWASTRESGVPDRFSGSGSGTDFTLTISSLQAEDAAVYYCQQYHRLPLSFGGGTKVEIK

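Phage display of a naive human antibody library on the peptide gave the parent. This is the validation round: designs drawn from the data on random variants, tested in the same kind of assay. Group labels follow the data file (Ctrl: baseline library sampled from a position-specific scoring matrix, with some repeated check sequences; En: ensemble of fine-tuned language models; GP: Gaussian process model; HC: hill climbing; Gen: genetic algorithm; Gibbs: Gibbs sampling; a sequence that several methods proposed may carry one label only). Affinity was read by AlphaSeq, a pooled yeast mating assay with surface-displayed partners. The frequency of each diploid, read from paired DNA barcodes, reflects how well the two displayed proteins bind. Scores were corrected for input abundance and mapped to Kd with protein pairs of known affinity run in the same pool. There are six technical replicates.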

The parent's light chain CDRs are KSSQSVLYESRNKNSVA, WASTRES, QQYHRLPLS; each variant's own CDRs replace them letter for letter.
The read-out is the apparent dissociation constant on a log10 scale (nM): the lower, the stronger.
"nd" means that the variant was in the library but no mating with the target was seen in that replicate; the authors take this as a sign of poor binding, and no number exists.
Of ten entries with the parent sequence, four were seen in most replicates (averages 0.34 to 2.37), three in one and three in none, so single entries are noisy.

CDR-L1 | CDR-L2 | CDR-L3 | group | log10 Kd (nM) by replicate
KQSQSDLSESRNKNSVA | DASTRES | QQYHRLPLS | GP_HC | 0.18 / 0.00 / -0.33 / -0.11 / -0.10 / 0.18
KMSQSVLYESRNKNSVA | EGSTRES | QQYHRLPLS | GP_Gen | -0.15 / -0.16 / -0.12 / -0.17 / -0.21 / -0.02
KLMNQMGGIEQMKNSIA | NLELGAR | QQYAHLPLV | En_Gibbs | 1.96 / 2.04 / 2.90 / 2.47 / 3.78 / 2.20
KLSTSVLYESRNKNQVA | SASTRES | QQYHRLPLS | Ctrl | -0.36 / -0.28 / -0.46 / -0.57 / -0.38 / -0.30
MMSQVWGMGQRHINNVA | QTSTREP | QQYDRLPLI | En_Gen | 0.27 / 0.41 / 0.17 / 0.19 / 0.30 / 0.43
NVGGEDPGQWYMKDSIA | GSSLRAE | QQYWRLPLL | En_Gibbs | 0.21 / 0.11 / 0.12 / -0.13 / 0.17 / 0.14
KSSQSVLDEDRNKNSVA | WASMREN | QDYHRLPLS | Ctrl | nd / nd / nd / nd / 1.86 / 2.44
KSSQSVLYESQNNNSVA | WASTRES | QQYHRLPLS | Ctrl | 2.99 / 2.01 / 2.22 / 2.35 / 3.16 / 2.44
TISMSMNWLTFNKNNIA | EESTREK | QQYDRLPLS | En_HC | 1.98 / 1.41 / 1.77 / 1.38 / 1.27 / 2.01
KLQQSVLYESRNCNSVA | NASTRCS | QQYHRLPLS | GP_Gen | 0.07 / 0.22 / -0.06 / 0.03 / -0.08 / 0.20
KSSQSELYESRNKNSVA | NASQRLS | QQYHRLPLS | GP_Gen | -0.02 / -0.05 / -0.22 / -0.33 / -0.05 / 0.25
KSSQSWLYESRNKNSVA | NASQRLS | QQYHRLPLS | GP_Gen | -0.28 / -0.53 / -0.20 / -0.65 / -0.41 / -0.54
KLDQQTLYETRNKNSVA | QASTREE | QQYHRLPLS | GP_HC | -0.38 / -0.59 / -0.14 / -0.73 / -0.80 / -0.28
KSSQSVLYESRNKNSVA | WKQTRES | QQYHRLPLS | Ctrl | nd / nd / nd / nd / nd / nd
MMSQVHALGQRHRNNVA | QTSTREP | QQYDRLPLI | En_Gen | 1.15 / 2.21 / 2.18 / 1.69 / 3.24 / 2.06
HLSQSVQQESRNKNSVA | EASQRER | QQYHRLPLS | GP_Gibbs | 2.14 / 1.40 / 1.55 / 1.23 / 1.69 / 1.24
KFSQWVLYESRAKNSVA | NASTRES | QQYHRLPLS | GP_HC | 1.16 / 1.07 / 0.85 / 0.99 / 0.23 / 0.88
KSSMSVLFESRNKNSVA | NASTRES | QQYHRLPLS | GP_HC | 0.94 / 1.15 / 0.57 / 0.54 / 0.45 / 1.04
KSSQSVLQESRNKNSVA | EAMTRES | QQYHRLPLS | Ctrl | 0.67 / 0.33 / 0.38 / 0.32 / 0.45 / 0.42
KLGQMTGIESHNKNSLA | DANRRES | QQYHRLPLS | En_HC | -0.20 / -0.49 / -0.36 / -0.53 / -0.45 / -0.36
KLSQSQLYESRNKNSVA | AASTRES | QQYHALPLS | Ctrl | 0.67 / 0.27 / 0.18 / -0.27 / -0.05 / 0.21

The remaining entries, values ahead:

log10 Kd (nM) by replicate | CDR-L1 | CDR-L2 | CDR-L3 | group
-0.05 / -0.06 / -0.15 / -0.11 / 0.02 / -0.10 | SFSQSVLYESRVKNSVA | NASTRES | QQYHRLPLS | GP_HC
0.31 / 0.06 / 0.17 / -0.22 / 0.52 / 0.64 | KSTISYLYESRNKNSVA | AASTRES | QQYHRLPLS | GP_HC
0.17 / 0.00 / 0.25 / 0.04 / 0.01 / 0.22 | KLSQSWLYESRNKNSVA | HASQRES | QDYHRLPLS | GP_Gen
-0.10 / -0.26 / -0.28 / -0.31 / -0.26 / -0.16 | KLPQSVEYESRNKNSVA | SASTRES | QQYHRLPLS | GP_Gen
nd / nd / nd / nd / nd / nd | LWSQSVLYESRNKNSVA | WHSTRES | QQYHRLPLS | Ctrl
0.29 / 0.13 / 0.01 / -0.04 / 0.03 / 0.18 | KMMQSQLYEDRAKNAVA | HASQRES | QQYHRLPLS | GP_Gibbs
0.06 / 0.03 / -0.06 / -0.06 / -0.04 / 0.13 | KVSQQVLYESRNKNSVA | NASTRES | QQYHRLPLS | GP_Gen
0.27 / 0.55 / -0.03 / -0.08 / -0.17 / 0.11 | FSLQSVLPESRNFNSVA | HASTRED | QQYHRLPLS | GP_HC
1.04 / 1.97 / 1.37 / 1.13 / 1.95 / 1.53 | KSSQSVRNESRNKNSVA | GASTRES | QQYHMLPLS | Ctrl
nd / 1.96 / 3.53 / nd / nd / 1.85 | KSSQSQLYESPNKNSVA | WASTRES | FQYHRLPLS | Ctrl
1.04 / nd / 1.99 / 0.86 / nd / 1.98 | KLQFLVLYESRNKNSVA | GASTRFS | QAYHRLPLS | GP_Gibbs
nd / nd / nd / nd / nd / nd | KSPQSVLYESPNKWSVA | WASTRES | QNYYRLPLS | Ctrl
0.29 / 0.30 / 0.19 / 0.04 / 0.01 / 0.25 | KSSISKLYESRNKNSVA | EASTRES | QQYHRLPLS | GP_HC
0.59 / 0.43 / 0.37 / 0.65 / 0.71 / 0.90 | TISQMMLMQTSHKNSVA | GEETRYN | QQYHHLPLS | En_HC
-0.33 / 0.00 / -0.03 / 0.09 / 0.09 / 0.10 | KVPFSVLYESRNKNAVA | QASTRES | QDYHRLPLS | GP_Gibbs
0.22 / 0.18 / 0.20 / 0.01 / -0.03 / 0.45 | KVSQSVLYESRMKNSVA | EASTRCS | QQYHRLPLS | GP_HC
0.50 / 0.55 / 0.37 / 0.35 / 0.28 / 0.36 | SVDHPFQGDNGRKASIA | NATIRDH | QQYFRLPLF | En_Gibbs
-0.30 / -0.47 / -0.70 / -0.78 / -0.65 / -0.48 | KLSQSCLYESRNKNNVA | EASTRES | QQYHRLPLS | GP_Gen
0.15 / -0.06 / -0.42 / -0.54 / -0.19 / -0.09 | KLPQSQLYESRNKNSVA | QASQRES | QQYHRLPLS | GP_Gen
-0.21 / -0.46 / -0.46 / -0.46 / -0.71 / -0.21 | KLSGSMLYESRNKNSVA | NASTRLS | QQYHRLPLS | GP_Gen
1.05 / 1.30 / 1.18 / 0.94 / 1.24 / 1.13 | KSAQSLLYESRFKNSVA | GASTRES | QQYHRLPLS | Ctrl

In the paper, a design with two or fewer of six values counts as a poor binder.
As a blank, each scFv also met three strains without target: over all light chain designs, 4% of these pairings were detected, typically at 2.64 and seldom below 1.59.
A sequence measured in both rounds can read differently, since the two assays cover different ranges.

From the AlphaSeq antibody data of Li et al. 2023 (doi:10.1038/s41467-023-39022-2), copy in the FLAb collection.